Assay results reported in ChEMBL document CHEMBL4715797, “Structure-Activity Relationships of [des-Arg]Dynorphin A Analogues at the κ Opioid Receptor” (J Med Chem, 2016).

Amino acid sequences for entries named in this document (tags omitted). A change or cut given only in a name is not applied to a line headed by its entry.
UniProt P41145: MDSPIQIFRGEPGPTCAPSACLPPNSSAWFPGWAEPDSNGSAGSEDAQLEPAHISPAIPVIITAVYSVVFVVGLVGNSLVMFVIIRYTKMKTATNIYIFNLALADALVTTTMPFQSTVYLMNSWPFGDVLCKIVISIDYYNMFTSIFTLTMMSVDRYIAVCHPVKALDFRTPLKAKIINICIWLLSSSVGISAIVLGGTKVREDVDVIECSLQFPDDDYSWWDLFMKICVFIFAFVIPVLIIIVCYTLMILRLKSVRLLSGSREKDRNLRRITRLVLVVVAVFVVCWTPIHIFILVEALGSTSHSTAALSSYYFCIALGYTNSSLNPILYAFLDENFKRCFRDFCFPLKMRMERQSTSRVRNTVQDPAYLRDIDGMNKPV
UniProt P35372, whole entry: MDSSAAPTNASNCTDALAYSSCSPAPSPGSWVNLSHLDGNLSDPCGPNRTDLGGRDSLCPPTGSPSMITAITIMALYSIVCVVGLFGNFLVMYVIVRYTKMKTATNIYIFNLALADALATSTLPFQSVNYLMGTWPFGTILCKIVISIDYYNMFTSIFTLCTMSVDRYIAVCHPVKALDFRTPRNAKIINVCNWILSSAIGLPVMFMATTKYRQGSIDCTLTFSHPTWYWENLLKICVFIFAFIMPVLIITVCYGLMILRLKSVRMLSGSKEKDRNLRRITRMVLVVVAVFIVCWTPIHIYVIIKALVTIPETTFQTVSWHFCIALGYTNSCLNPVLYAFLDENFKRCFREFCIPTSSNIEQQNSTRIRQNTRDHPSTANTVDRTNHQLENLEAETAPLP
UniProt P41143, whole entry: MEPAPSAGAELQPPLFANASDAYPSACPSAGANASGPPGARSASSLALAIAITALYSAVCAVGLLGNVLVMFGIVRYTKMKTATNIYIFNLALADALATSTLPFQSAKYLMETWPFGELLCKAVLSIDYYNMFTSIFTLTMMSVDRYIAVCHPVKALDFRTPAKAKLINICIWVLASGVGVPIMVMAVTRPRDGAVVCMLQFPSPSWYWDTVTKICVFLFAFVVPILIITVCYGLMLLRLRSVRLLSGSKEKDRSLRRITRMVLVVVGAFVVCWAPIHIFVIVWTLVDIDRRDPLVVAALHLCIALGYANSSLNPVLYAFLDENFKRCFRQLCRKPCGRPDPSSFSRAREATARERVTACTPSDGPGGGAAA

Key:
[1] = biological target: T1, Kappa-type opioid receptor (Homo sapiens, UniProt P41145); assay: Displacement of [3H]U69,593 from human KOR expressed in mouse HN9.10 cell membranes incubated for 2 hrs by liquid scintillation counting based radioligand competition assay
Mu-type opioid receptor = Mu-type opioid receptor (Homo sapiens, UniProt P35372); assay: Displacement of [3H]diprenorphine from human MOR expressed in mouse NG108-15 cell membranes incubated for 2 hrs by liquid scintillation counting based radioligand competition assay
[2] = biological target: Delta-type opioid receptor (Homo sapiens, UniProt P41143); assay: Displacement of [3H]deltorphin-II from human DOR expressed in CHO cell membranes incubated for 2 hrs by liquid scintillation counting based radioligand competition assay
Method in brief: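 Crude membranes from transfected cells, 50 µg protein, in 50 mM Tris-HCl pH 7.4 with bacitracin 50 µg/mL, captopril 10 µM, PMSF 100 µM and BSA 5 mg/mL. Ten concentrations (10−4–10−13 M) were run against 500 pM [3H]deltorphin II for 2 h at rt with shaking. Nonspecific binding was taken with 10 µM naloxone. Filtered on PEI-soaked GF/B, washed in cold saline, scintillation counted.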

[3] = biological target: T1, Kappa-type opioid receptor; assay: Antagonist activity at human KOR expressed in CHO cell membranes assessed as reduction in U50,488 induced response incubated for 1 hr by liquid scintillation counting based [35S]GTP-gamma-S assay; set-up: species or system Cell membrane

| Structure (SMILES) | IC50 [1] [nM] | Ki [1] [nM] | IC50 (Mu-type opioid receptor) [nM] | Ki (Mu-type opioid receptor) [nM] | IC50 [2] [nM] | Ki [2] [nM] | IC50 [3] [nM] |
| --- | --- | --- | --- | --- | --- | --- | --- |
| CC(=O)N[C@@H](Cc1ccc(O)cc1)C(=O)NCC(=O)N1CCC[C@H]1C(=O)N[C@@H](Cc1ccccc1)C(=O)N[C@@H](CC(C)C)C(=O)N[C@@H](CCCN)C(=O)N[C@H](C)C(=O)N[C@@H](CCCNC(=N)N)C(=O)N1CCC[C@H]1C(=O)N[C@@H](CCCCN)C(N)=O | 7080 | 4300 | – | – | – | – | – |
| CC[C@H](C)[C@H](NC(=O)[C@H](CCCNC(=N)N)NC(=O)[C@H](CC(C)C)NC(=O)[C@H](Cc1ccccc1)NC(=O)CNC(=O)CNC(=O)[C@H](Cc1ccc(O)cc1)NC(C)=O)C(=O)N[C@@H](CCCNC(=N)N)C(N)=O | 93.3 | 51 | 9550 | 4320 | – | – | – |
| CC[C@H](C)[C@H](NC(=O)[C@H](CCCNC(=N)N)NC(=O)[C@H](CC(C)C)NC(=O)[C@H](Cc1ccccc1)NC(=O)CNC(=O)CNC(=O)[C@@H](N)Cc1ccc(O)cc1)C(=O)N[C@@H](CCCNC(=N)N)C(N)=O | 0.55 | 0.3 | – | – | – | – | – |
| CC(=O)N[C@@H](Cc1ccc(O)cc1)C(=O)NCC(=O)N1CCC[C@H]1C(=O)N[C@@H](Cc1ccccc1)C(=O)N[C@@H](CC(C)C)C(=O)N[C@@H](CCCNC(=N)N)C(=O)N[C@H](C)C(=O)N[C@@H](CCCNC(=N)N)C(=O)N1CCC[C@H]1C(=O)N[C@@H](CCCCN)C(N)=O | 9120 | 5200 | – | – | 24500 | 9700 | – |
| CC[C@H](C)[C@H](NC(=O)[C@H](CCCNC(=N)N)NC(=O)[C@H](CC(C)C)NC(=O)[C@H](Cc1ccccc1)NC(=O)CNC(=O)CNC(=O)[C@@H](N)Cc1ccc(O)cc1)C(=O)N[C@@H](CCCNC(=N)N)C(=O)N1CCC[C@H]1C(=O)N[C@@H](CCCCN)C(=O)O | – | – | – | 6.3 | – | – | – |
| CC[C@H](C)[C@H](NC(=O)[C@H](CCCNC(=N)N)NC(=O)[C@H](CC(C)C)NC(=O)[C@H](Cc1ccccc1)NC(=O)[C@@H]1CCCN1C(=O)CNC(=O)[C@@H](N)Cc1ccc(O)cc1)C(=O)N[C@@H](CCCNC(=N)N)C(=O)N1CCC[C@H]1C(=O)N[C@@H](CCCCN)C(N)=O | 115 | 61 | – | – | 7760 | 3900 | > 2500 |
| CC[C@H](C)[C@H](NC(=O)[C@H](CCCNC(=N)N)NC(=O)[C@H](CC(C)C)NC(=O)[C@H](Cc1ccccc1)NC(=O)CNC(=O)CNC(=O)[C@H](Cc1ccc(O)cc1)NC(C)=O)C(=O)N[C@@H](CCCNC(=N)N)C(=O)N1CCC[C@H]1C(=O)N[C@@H](CCCCN)C(N)=O | 158 | 85 | 1620 | 820 | – | – | – |
| CC(=O)N[C@@H](Cc1ccc(O)cc1)C(=O)NCC(=O)NCC(=O)N[C@@H](Cc1ccccc1)C(=O)N[C@@H](CC(C)C)C(=O)N[C@@H](CCCNC(=N)N)C(=O)N[C@H](C)C(=O)N[C@@H](CCCNC(=N)N)C(=O)N1CCC[C@@H]1C(=O)N[C@@H](CCCCN)C(N)=O | 186 | 98 | – | – | 8710 | 720 | – |
| CC[C@H](C)[C@H](NC(=O)[C@H](CCCNC(=N)N)NC(=O)[C@H](CC(C)C)NC(=O)[C@H](Cc1ccccc1)NC(=O)CNC(=O)CNC(=O)[C@@H](N)Cc1ccc(O)cc1)C(=O)N[C@@H](CCCNC(=N)N)C(=O)N1CCC[C@H]1C(=O)N[C@@H](CCCCN)C(N)=O | – | – | 1.82 | 0.94 | – | – | – |
| CC(=O)N[C@@H](Cc1ccc(O)cc1)C(=O)NCC(=O)N1CCC[C@H]1C(=O)N[C@@H](Cc1ccccc1)C(=O)N[C@@H](CC(C)C)C(=O)N[C@@H](CCCNC(=N)N)C(=O)N[C@H](C)C(=O)N[C@@H](CCCNC(=N)N)C(=O)N1CCC[C@@H]1C(=O)N[C@@H](CCCCN)C(N)=O | 6920 | 3600 | – | – | – | > 10000 | – |
| CC[C@H](C)[C@H](NC(=O)[C@H](CCCNC(=N)N)NC(=O)[C@H](CC(C)C)NC(=O)[C@H](Cc1ccccc1)NC(=O)[C@@H]1CCCN1C(=O)CNC(=O)[C@@H](N)Cc1ccc(O)cc1)C(=O)N[C@@H](CCCNC(=N)N)C(N)=O | – | – | – | – | 8510 | 4600 | – |
